The campaign covered roughly 340,000 compounds. About 100 (0.029%) were called active. Inconclusive results (about 8%) are left out. Calls follow the shape of the full dose curve. Shown is part of a subset that was picked to be rich in actives.
target: Importin subunit beta-1 (Homo sapiens) (UniProt Q14974); assay: qHTS Assay for Inhibitors of Rango (Ran-regulated importin-beta cargo) - Importin beta complex formation; conditions: Rango CFP/YFP FRET sensor + importin beta, 45 min; series mostly up to 92.2 µM; inhibition of complex formation: at the top concentration; also: nearly all actives have a fitted effect of over 15% in size;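 as to inhibition of complex formation: 0% = DMSO wells and 100% = buffer wells lacking importin beta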
Source text: NIH Molecular Libraries Probe Production Centers Network [MLPCN] NIH Chemical Genomics Center [NCGC] MLPCN Grant: R03 MH090808-01A1 Assay Submitter (PI): Petr Kalab NCGC Assay Overview: The small GTPase Ran regulates transport of macromolecules between the nucleus and the cytoplasm (nuclear transport) and has important functions in mitotic spindle assembly, nuclear envelope (NE) formation and nuclear pore complex (NPC) assembly. RanGTP gradient is thought to promote spindle assembly by providing a spatial clue to microtubule nucleation and Aurora A activation. Because the localized release and binding of importin alpha cargo relays this spatial clue to SAFs, inhibitors of the Rango - importin beta complex can then be used in further understanding their role in cell cycle specifically in mitosis progression. […] Activation of Aurora A has been linked to different types of cancer and a number of Aurora kinase inhibitors are being developed as potential canter therapeutics therefore, identified inhibitors of this complex could be developed into potential anti-mitotic probes for cancer treatment. Purified recombinant proteins Rango and importin beta were provided by the assay submitter. The assay used a fluorescence resonance energy transfer (FRET) Rango biosensor that contains the IBB of human snurportin 1 flanked by yellow fluorescent protein (EYFP) at the amino terminus and cerulean CFP10 at the carboxy terminus. […] Inhibitors will therefore be identified based on the ability to interfere with the FRET signal decrease. DMSO treated and no importin beta (buffer only) wells were used as negative and positive controls respectively. FRET readings were obtained at two time points. FRET reading prior to importin beta addition (pre-read) were used flag potential compound interference; FRET reading after importin beta addition (post-read) were used to identify inhibitors using the FRET ratio parameter.
NCGC Assay Protocol Summary: Two and a half uL/well of Rango-buffer solution (50 nM Rango, 1x PBS, 1mM DTT, 0.02% Tween-20, 0.1% BSA final concentrations) was dispensed into 1536-well assay plates (Greiner, solid black medium-binding plates) with Aurora Discovery BioRAPTR Flying Reagent Dispenser (FRD; Beckton-Dickenson). Compound solution (23 nL) was transferred to the assay plate using Kalypsys pin tool equipped with a 1536-pin tool and incubated at room temperature for 5 min followed by a FRET pre-read using the PerkinElmer Envision plate reader. Two and a half uL/well of Importin beta - buffer solution (0.125 microM importin beta, 1x PBS, 1mM DTT, 0.02% Tween-20, 0.1% BSA final concentrations) were then added and incubated at room temperature giving a final reaction volume of 5uL. After 45min FRET post-read was obtained via the Envision plate reader using the same optics and settings as the pre-read (CFP/YFP optimized dual optical module D450/D505; excitation mirror CFP 430/24 nm; and emission filters CFP 486/10 nm and YFP 530/10 nm).
Potency is read from the fitted curve at half-maximal effect; tags tell the direction and shape of the fitted curve.

Amino acid sequences for entries named in this document (tags omitted).
UniProt Q14974, whole entry, looked up: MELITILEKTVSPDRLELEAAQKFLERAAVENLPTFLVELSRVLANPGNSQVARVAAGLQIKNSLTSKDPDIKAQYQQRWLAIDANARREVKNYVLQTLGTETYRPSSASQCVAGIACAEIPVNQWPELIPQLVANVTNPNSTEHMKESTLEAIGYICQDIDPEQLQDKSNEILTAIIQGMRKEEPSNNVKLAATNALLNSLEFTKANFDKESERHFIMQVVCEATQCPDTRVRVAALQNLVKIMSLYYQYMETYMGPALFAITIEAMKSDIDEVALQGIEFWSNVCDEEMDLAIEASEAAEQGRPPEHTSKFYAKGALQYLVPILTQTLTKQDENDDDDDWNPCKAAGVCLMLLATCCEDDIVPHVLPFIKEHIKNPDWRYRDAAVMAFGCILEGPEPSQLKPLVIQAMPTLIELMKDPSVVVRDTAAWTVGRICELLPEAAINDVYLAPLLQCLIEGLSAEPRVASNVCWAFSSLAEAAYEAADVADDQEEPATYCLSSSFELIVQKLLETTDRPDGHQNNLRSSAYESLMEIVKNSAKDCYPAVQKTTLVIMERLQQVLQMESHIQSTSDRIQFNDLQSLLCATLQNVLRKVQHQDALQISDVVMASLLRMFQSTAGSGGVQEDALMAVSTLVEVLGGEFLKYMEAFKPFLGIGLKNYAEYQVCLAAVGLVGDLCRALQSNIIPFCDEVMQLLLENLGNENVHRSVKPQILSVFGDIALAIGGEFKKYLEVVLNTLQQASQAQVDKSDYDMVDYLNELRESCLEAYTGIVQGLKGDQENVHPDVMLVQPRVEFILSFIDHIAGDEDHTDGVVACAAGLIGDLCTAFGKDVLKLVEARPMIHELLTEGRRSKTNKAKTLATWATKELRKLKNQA

Inhibition of complex formation, inactive:
C=CCOC(=O)N1CCC2CC1c1cc(-c3ccc(OC)cc3)ccc12 (centres undefined) -2.77%
O=C(NCCc1ccccc1)c1c[nH]c2ccc(F)cc2c1=O -0.0045%
COc1ccc(CCC(=O)Nc2ccc(Cl)c(S(=O)(=O)N3CCOCC3)c2)cc1OC -0.735%
O=C(CNC(=O)c1cc(S(=O)(=O)N2CCOCC2)ccc1N1CCCC1)Nc1ccc(F)c(F)c1 0.285%
Cc1ccc(NC(=O)C(C)OC(=O)C2CC3CCCC(C2)C3=O)cc1S(=O)(=O)N1CCOCC1 (centres undefined) -0.445%
Cn1cc(C2OC(=O)c3ccccc32)c2ccccc21 (centres undefined) -2.51%
O=C(Nc1ccc(S(=O)(=O)N2CCOCC2)cc1)C1CCN(S(=O)(=O)c2ccc(Cl)cc2)CC1 -0.232%
CC1C(C)N(C(=O)CCl)c2ccccc2N1C(=O)CCl (centres undefined) 2.49%
NS(=O)(=O)c1ccc(CCNC(=O)c2ccc(Cl)c(S(=O)(=O)N3CCCCCC3)c2)cc1 -0.982%
O=C1c2ccccc2C(=O)N1CCCCCCN1C(=O)c2ccccc2C1=O -4.66%
CC(C)C[C@H]1CN([C@@H](CC(C)C)CN2CCC[C@@H]2CN2C(=O)C(=O)NC[C@@H]2Cc2ccccc2)C(=O)C(=O)N1CCc1ccccc1 -4.53%
COc1ccc(-c2ccc3c(c2)C2CC3CCN2CCC#N)cc1 (centres undefined) -0.906%
CN(C)C(CNC(=O)c1cc2ccccc2o1)c1ccccc1 (centres undefined) 0.201%
CCCCNC1(C#N)CCN(Cc2ccccc2)CC1 -0.281%
NC(=O)C1(Nc2ccccc2Cl)CCCC1 1.43%
COc1ccc(S(=O)(=O)N2CCc3ccccc32)cc1C(=O)Nc1cc(S(C)(=O)=O)ccc1Cl 1.2%
Cc1cc(NC(=O)C(C)SCC(=O)Nc2cccc(S(=O)(=O)N3CCCCCC3)c2)no1 (centres undefined) -13.4%
NC(=O)c1ncn([C@@H]2O[C@H](CN=C3NS(=O)(=O)c4ccccc43)[C@@H](O)[C@H]2O)n1 0.0699%
Cc1cc([N+](=O)[O-])c(=O)[nH]c1C -4.18%
O=C1OC(Cc2ccccc2)C(c2ccccc2)C1=O (centres undefined) 1.66%
O=C(Nc1ccn(CCCNCc2ccc3[nH]ccc3c2)c(=O)n1)OCc1ccccc1 1%
CCCCNCCS(=O)(=O)NCc1ccccc1 -2.8%
CNc1nc(=O)n(C2CCCO2)cc1C (centres undefined) -3.1%
S=C(Nc1ccccc1)Nc1ccc2ccccc2c1 -0.599%
COc1ccc(S(=O)(=O)N2C[C@H]3CON(C)[C@H]3C[C@H]2c2cccc(Br)c2)cc1 1.49%
Cc1ccc(-c2csc(C(C#N)=C(O)CN3CCN(C(=O)c4ccco4)CC3)n2)cc1 -1.82%
Cc1ccc(S(=O)(=O)N2CCC(C(=O)N3CCCCCCC3)CC2)cc1 4.24%
CCCCC(=O)NC(c1ccc(OC)c(OC)c1)c1ccc2cccnc2c1O (centres undefined) 1.17%
CCC1(C)COC(c2ccc(OC)c(OC)c2)OC1 (centres undefined) 0.785%
CCC(C)C1(C2CCCC2)NC(=O)NC1=O (centres undefined) -3.68%
Cc1nn(-c2ccc(F)cc2)c(Cl)c1/C=C(/CCC(=O)O)c1nc2ccccc2s1 -3.7%
COc1cc(OC)c(C(=O)NNC(=O)c2ccc(NS(=O)(=O)c3cccs3)cc2)cc1OC -0.772%
CC(=O)OCC1(O)CC23CCC4c5ccoc5CCC4(C)C2CCC1C3 (centres undefined) 0.228%
CC1CCCN(C(=O)Cn2c(=O)oc3cc(S(=O)(=O)N4CCCCC4C)ccc32)C1 (centres undefined) -0.022%
CCCCN(C(=O)CSCc1ccc(C)cc1)c1c(N)n(Cc2ccccc2)c(=O)[nH]c1=O -2.96%
OCC1(CO)CC2(C1)CC(CO)(CO)C2 2.26%
Cc1ccc(S(=O)(=O)CCC(=O)Nc2nnc(CC(C)C)s2)cc1 -0.478%
Cc1ccc(S(=O)(=O)CC(=O)Nc2sc(C)c(C)c2C(N)=O)cc1 -2.87%
CCN(CC)S(=O)(=O)c1cccc(NC(=O)c2ccc(S(=O)(=O)N3CCCC3)cc2)c1 -0.567%
O=C(NNc1nc(N2CCCC2)nc(N2CCCC2)n1)c1ccccc1 -2.23%
O=C(NCC1CCCCC1)NCC1CCCCC1 0.434%
Cc1cc(OCCCC(=O)Nc2cc(S(=O)(=O)N3CCOCC3)ccc2N2CCOCC2)ccc1Cl -3.56%
C(#CCN1CCOCC1)CCCN1CCOCC1 -2.11%
c1ccc(C(=NNc2nc3ccccc3s2)c2ccccn2)cc1 3.48%
O=C1C(Cl)=C(Oc2ccccc2)C(=O)c2ccccc21 -0.947%
O=C(O)C1C2C=CC(O2)C1C(=O)Nc1ccccn1 (centres undefined) -0.337%
O=C1CC[C@@H]2CC3(C[C@@H]4CCN1[C@H]24)Nc1cc([N+](=O)[O-])ccc1NC3=NC1CCCCC1 (some centres undefined) 7.93%
Cc1cccc(NC(=S)N2CCC(C(=O)c3ccc(F)cc3)CC2)c1 5.47%
CCC1([N+](=O)[O-])COC(c2ccc(C)cc2)OC1 (centres undefined) 1.54%
COC(=O)c1ccc(NCc2cc(O)ccc2O)cc1 -7.51%
CC(=O)c1ccc(NC(=O)C(C)OC(=O)c2ccc(NS(=O)(=O)c3ccc4[nH]c(=O)[nH]c4c3)cc2)cc1 (centres undefined) 0.601%
CCOc1cc2ccccc2cc1C(=O)Nc1ccccn1 0.912%
Cc1cccc(OCC(=O)NCCCNC(=O)c2ccccn2)c1 3.28%
COC(=O)c1ccc(CNC(=O)Cn2cc(C)c(=O)[nH]c2=O)cc1 -2.1%
CC(Nc1ccc([N+](=O)[O-])cc1[N+](=O)[O-])c1ccccc1 (centres undefined) -0.617%
CCCN(C(=O)COC(=O)CNS(=O)(=O)c1ccc(NC(C)=O)cc1)C1CCS(=O)(=O)C1 (centres undefined) 0.164%
CC(=NNC(=S)N1CCCCCC1)c1ccccn1 -3.27%
CCOc1ccc(CCNC(=O)COC(=O)C2CCN(S(=O)(=O)c3ccccc3)CC2)cc1OCC -2.12%
COc1ccc(/C(C)=N/NC(=O)c2ccc3nc[nH]c3c2)cc1 -1.28%
O=C(N/N=C/c1ccc(Cl)c(Cl)c1)c1ccc2nc[nH]c2c1 2.08%

Potency, active:
Cc1ccc(S(=O)(=O)CC(=O)Nc2nnc(C)s2)cc1 65.1 µM
COc1cccc2c1C(=O)c1c(O)c3c(c(O)c1C2=O)CC(O)(C(C)=NNC(=O)c1ccc(Cl)c(Cl)c1)CC3OC1CC(N)C(O)C(C)O1 (centres undefined) 14.6 µM
CCN(CC)CCOc1ccc2c(c1)C(=NNC(=O)c1ccccn1)c1cc(OCCN(CC)CC)ccc1-2 46.1 µM
CC(=NNC(=O)c1ccc2nc[nH]c2c1)c1ccc(Br)cc1 51.7 µM

— PubChem BioAssay AID540263 (National Center for Advancing Translational Sciences (NCATS), 2011)
